How the values were obtained:
Format in all cases: cell-based
[1] = biological target: recombinant human norepinephrine transporter expressed in either HEK293 or MDCK cells (Homo sapiens, UniProt P23975); assay: Norepinephrine functional uptake assay for human reuptake transporter; conditions: read-out: hNET (IC50 nM); functional uptake of norepinephrine
[2] = biological target: recombinant human serotonin transporter expressed in HEK-293 cells (Homo sapiens, UniProt P31645); assay: Serotonin functional uptake assay for human reuptake transporter; conditions: read-out: hSERT (IC50 nM); functional uptake of serotonin
[3] = biological target: recombinant human dopamine transporter expressed in either CHO-K1 or HEK293 cells (Homo sapiens, UniProt Q01959); assay: Dopamine functional uptake assay for human reuptake transporter; conditions: read-out: hDAT (IC50 nM); functional uptake of dopamine

Sequences of proteins named here, by UniProt entry; tags and fusion partners are left off.
UniProt P23975, whole entry, looked up: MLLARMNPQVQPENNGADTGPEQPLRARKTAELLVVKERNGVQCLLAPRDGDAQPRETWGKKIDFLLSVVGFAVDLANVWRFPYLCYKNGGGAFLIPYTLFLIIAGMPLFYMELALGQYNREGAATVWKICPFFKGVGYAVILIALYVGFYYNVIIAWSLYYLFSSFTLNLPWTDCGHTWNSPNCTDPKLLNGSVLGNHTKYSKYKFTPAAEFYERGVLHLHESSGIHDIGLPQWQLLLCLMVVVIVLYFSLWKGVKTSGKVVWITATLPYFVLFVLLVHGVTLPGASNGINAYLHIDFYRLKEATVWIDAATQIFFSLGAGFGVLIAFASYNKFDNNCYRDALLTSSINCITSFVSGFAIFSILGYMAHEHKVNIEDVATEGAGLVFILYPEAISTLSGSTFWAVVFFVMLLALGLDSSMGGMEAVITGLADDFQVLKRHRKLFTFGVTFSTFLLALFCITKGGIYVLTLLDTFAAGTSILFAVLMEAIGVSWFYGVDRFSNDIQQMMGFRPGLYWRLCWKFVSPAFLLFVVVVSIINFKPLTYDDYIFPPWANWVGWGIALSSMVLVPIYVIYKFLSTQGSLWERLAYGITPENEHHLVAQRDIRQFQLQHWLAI
UniProt P31645, whole entry, looked up: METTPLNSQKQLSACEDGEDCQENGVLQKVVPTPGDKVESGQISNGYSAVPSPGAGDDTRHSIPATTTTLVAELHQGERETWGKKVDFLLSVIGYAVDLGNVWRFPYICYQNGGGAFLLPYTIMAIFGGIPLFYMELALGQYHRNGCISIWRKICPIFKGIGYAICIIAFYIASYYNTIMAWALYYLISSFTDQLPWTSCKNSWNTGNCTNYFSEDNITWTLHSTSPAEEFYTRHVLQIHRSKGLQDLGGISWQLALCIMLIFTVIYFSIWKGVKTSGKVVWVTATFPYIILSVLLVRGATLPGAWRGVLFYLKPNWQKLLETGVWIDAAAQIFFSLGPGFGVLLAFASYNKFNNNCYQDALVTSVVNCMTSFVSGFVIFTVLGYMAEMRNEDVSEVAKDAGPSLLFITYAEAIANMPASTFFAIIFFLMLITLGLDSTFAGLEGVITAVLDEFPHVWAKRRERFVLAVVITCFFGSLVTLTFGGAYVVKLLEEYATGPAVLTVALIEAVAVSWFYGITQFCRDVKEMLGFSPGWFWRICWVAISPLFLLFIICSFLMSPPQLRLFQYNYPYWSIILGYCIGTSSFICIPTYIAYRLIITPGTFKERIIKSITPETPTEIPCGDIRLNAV
UniProt Q01959, whole entry, looked up: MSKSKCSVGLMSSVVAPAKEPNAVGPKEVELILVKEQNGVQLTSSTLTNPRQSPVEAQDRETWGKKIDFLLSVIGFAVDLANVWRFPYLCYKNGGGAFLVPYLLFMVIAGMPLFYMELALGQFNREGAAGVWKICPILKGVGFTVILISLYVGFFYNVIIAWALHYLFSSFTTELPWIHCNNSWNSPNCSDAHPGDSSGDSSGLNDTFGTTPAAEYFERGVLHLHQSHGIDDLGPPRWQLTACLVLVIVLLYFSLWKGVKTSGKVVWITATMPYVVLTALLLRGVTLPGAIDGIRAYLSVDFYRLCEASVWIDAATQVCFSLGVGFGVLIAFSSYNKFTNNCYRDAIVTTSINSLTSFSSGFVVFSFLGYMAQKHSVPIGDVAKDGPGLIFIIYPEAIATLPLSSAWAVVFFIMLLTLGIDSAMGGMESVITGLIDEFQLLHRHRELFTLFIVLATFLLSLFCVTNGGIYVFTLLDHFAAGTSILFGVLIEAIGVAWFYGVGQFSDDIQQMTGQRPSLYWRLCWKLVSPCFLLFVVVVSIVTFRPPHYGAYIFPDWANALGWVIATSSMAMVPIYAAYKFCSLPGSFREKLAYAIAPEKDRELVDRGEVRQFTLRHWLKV

Measured: IC50

O[C@@H]1CNCC1C1(c2ccc(Cl)c(Cl)c2)CCCC1 (stereo partly drawn)
< 100 nM: all assays above

— patent publication US9505716B2, “Pyrrolidine triple reuptake inhibitors” (SUNOVION PHARMACEUTICALS INC., priority 2009, dated 2016)
